Reference: patent US9980973B2, “Bicyclic heterocycle compounds and their uses in therapy” (ASTEX THERAPEUTICS LIMITED, priority 2012, dated 2018)

Chains of the proteins cited; added tags and fusions are not shown. Residues count along the entry.
UniProt Q13490, 267-363: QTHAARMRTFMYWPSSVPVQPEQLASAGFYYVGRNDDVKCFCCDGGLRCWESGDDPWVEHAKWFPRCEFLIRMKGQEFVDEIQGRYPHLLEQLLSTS
UniProt P98170, 252-350: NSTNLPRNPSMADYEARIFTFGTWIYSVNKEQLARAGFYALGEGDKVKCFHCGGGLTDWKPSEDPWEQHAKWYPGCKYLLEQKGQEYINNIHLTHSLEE

Assays:
[1] = biological target: T1, BIR3 domain of human cIAP-1 (Homo sapiens, UniProt Q13490); assay: cIAP-1 in vitro competitive displacement binding assay (fluorescence polarization); details: 3 h, read-out: cIAP1 IC50 or PI μM (PI), PI at 0.012 μM
T1 construct: human cIAP-1 (residues 267-363) fused to a GST-tag; GST-tag (cleaved yes); made in house; host or cells: Escherichia coli

[2] = biological target: T2, BIR3 domain of human XIAP (Homo sapiens, UniProt P98170); assay: XIAP in vitro competitive displacement binding assay (fluorescence polarization); details: 1 h; for inhibition at 0.04 µM: read-out: Xiap IC50 or PI μM (PI), PI at 0.04 μM; for inhibition at 0.12 µM: read-out: Xiap IC50 or PI μM (PI), PI at 0.12 μM
T2 construct: BIR3 domain of human XIAP (residues 252-350) fused to a His-tag; His-tag (cleaved yes); made in house; host or cells: Escherichia coli

Row | Structure (SMILES) | inhibition at 0.012 µM [1] | inhibition at 0.04 µM [2] | inhibition at 0.12 µM [2]
1 | C[C@@H]1CN(CC(=O)N2CC(C)(C)c3ncc(Cc4ccc(F)cc4)cc32)[C@@H](CN2CCOCC23CC3)CN1 [Example 10, 1-{6-[(4-Fluorophenyl)methyl]-3,3-dimethyl-1H,2H,3H-pyrrolo[3,2-b]pyridin-1-yl}-2-[(2R,5R)-5-methyl-2-{7-oxa-4-azaspiro[2.5]octan-4-ylmethyl}piperazin-1-yl]ethan-1-one dihydrochloride] | 97% | 41% | 
2 | CC(C)[C@@H]1COCCN1C[C@H]1CN[C@H](C)CN1CC(=O)N1CC(C)(C)c2ncc(Cc3ccc(F)cc3)cc21 [Example 13, 1-{6-[(4-Fluorophenyl)methyl]-3,3-dimethyl-1H,2H,3H-pyrrolo[3,2-b]pyridin-1-yl)-2-[(2R,5R)-5-methyl-2-{[(3R)-3-(propan-2-yl)morpholin-4-yl]methyl}piperazin-1-yl]ethan-1-one dihydrochloride] | 98% |  | 59%
3 | C[C@@H]1CN(CC(=O)N2CC(C)(C)c3ncc(Cc4ccc(F)cc4)cc32)[C@@H](CN2CCC[C@@H](F)C2)CN1 [Example 14, 1-{6-[(4-Fluorophenyl)methyl]-3,3-dimethyl-1H,2H,3H-pyrrolo[3,2-b]pyridin-1-yl}-2-[(2R,5R)-2-{[(3R)-3-fluoropiperidin-1-yl]methyl}-5-methylpiperazin-1-yl]ethan-1-one dihydrochloride] | 98% |  | 62%
4 | CCCC(F)(F)c1cc2c(cn1)C(C)(C)CN2C(=O)CN1C[C@@H](C)NC[C@@H]1CN1[C@H](C)CN(C(C)=O)C[C@@H]1C [Example 93, 2-[(2R,5R)-2-{[(2R,6S)-4-Acetyl-2,6-dimethylpiperazin-1-yl]methyl}-5-methylpiperazin-1-yl]-1-[6-(1,1-difluorobutyl)-3,3-dimethyl-1H,2H,3H-pyrrolo[3,2-c]pyridin-1-yl]ethan-1-one dihydrochloride] | 80% | 50% | 

Counter-ions that a name gives are not always drawn.
